# Bioassay records: PubChem BioAssay, Broad Institute
# A selection: hits, their analogues and other compounds. The true share with any hit is near 1.5%.
# HIV Env fusion = inhibitors of HIV Env-mediated cell fusion; HeLa-JRFL Env/CEM21 cell fusion, luciferase; AID 651610; 1.1% of 360,000 active; inhibition, % at 12.3 µM;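 active means mean replicate inhibition score of at least 50 and every replicate individually at or above 50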
# Cneo AK release = causes C. neoformans cell lysis | AID 651654 | 0.2% of 360,000 active | lysis activity, % at 15 µM | adenylate kinase release luminescence, 4 h; normalised: neutral wells 0, clomiphene wells 100;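 active means mean lysis activity across replicates of at least 80%, whatever share of replicates individually reach that level; inactive means mean lysis activity below 80%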
#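 Material: C. neoformans cells; Schedule: 4 h static compound exposure, 37 °C, read 1 h post-reagent; Measured by: adenylate kinase release luminescence; Read-out: signal increase indicating cell lysis; Controls: Clomiphene as positive lysis control.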
# miR122 inh = miR-122 inhibition in Huh7 cells | Huh7 miR-122 Renilla luciferase sensor, 48 h; neutral wells = 0, positive control = 100 | AID 602342 | activation (reporter increase), % at 12.5 µM | 0.3% of 340,000 active;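 active means mean replicate activation score at least 90 and every replicate individually at or above 90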;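 further: higher luciferase means less miR-122 activity so hits act as miR-122 inhibitors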
# PGC1a acetyl inh = modulators of PGC1a acetylation; U2OS PGC1a acetylation, AlphaScreen anti-acetyl-lysine; with virally co-expressed GCN5 acetyltransferase; inhibition, % at 15.6 µM; 0.17% of 350,000 active;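 active means every replicate shows inhibition of at least 40%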
# FN deposition inh = fibronectin deposition inhibition; AH1F fibroblasts, Alexa488-fibronectin deposition fluorescence, overnight; inhibition, % at 12.6 µM; 0.086% of 350,000 active; AID 743247;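 active means mean inhibition across replicates of 30% or more, regardless of how many single replicates reach that level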
#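 Test system: AH1F fibroblast monolayer depositing Alexa488-labelled fibronectin into matrix. Input: 10000 cells per well. Technique: fluorescence, ex 485 nm, em 525 nm. Buffer or medium: DMEM plus 2% serum, read in PBS. Timing: 1 h cell adhesion before compound, then overnight fibronectin incubation. Compound: single dose, pinned. Read-out basis: inhibition from reduced deposited-fibronectin fluorescence.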
# Yeast UUG start = yeast start codon fidelity modulation | S. cerevisiae UUG-firefly luciferase reporter, luminescence/redox ratio | activity score, % at 18.7 µM | 0.13% of 350,000 active | AID 602363;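 active means replicate mean at a twofold rise or more, about +100% in these data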;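 further: firefly luciferase made from a UUG start codon reports start codon fidelity; reporter light over untreated wells divided by growth signal over untreated wells; some hits fall short of that in this replicate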
# A number is an active result; - = inactive; . = no result given; ! = repeats disagree; [ ] = another dose, or the depositor's remark.
SMILES,HIV Env fusion,Cneo AK release,miR122 inh,PGC1a acetyl inh,FN deposition inh,Yeast UUG start
COc1cccc(C2(c3cccc(OC)c3)CC2C(=O)Nc2cccc3ccccc23)c1 (stereo not given),-,-,-,-,-,-
O=C(C1CCOCC1)N1CC[C@@H]2[C@@H](CO)Nc3ccc(Br)cc3[C@@H]21,.,91.4,-,-,-,-
O=S(=O)(c1cccc(F)c1)N1CC[C@H]2[C@H](CO)Nc3ccc(-c4cccc(F)c4)cc3[C@H]21,.,-,-,-,35.5,-
C[C@@H]1CN([C@@H](C)CO)C(=O)c2cc(C#CC3(O)CCCC3)cnc2O[C@@H]1CN(C)Cc1ccncc1,-,-,-,-,.,-
O=S(=O)(c1cc(F)ccc1F)N1CCC2(CC1)OCCO2,59.7,-,.,.,.,-
CC(C)CN(C(=O)/C=C/c1nc2ccccc2s1)C1CCS(=O)(=O)C1 (stereo not given),.,-,-,-,.,-
Cc1ccc2nc(Cl)c3cc(C(=O)N(CCN(C)C)Cc4ccco4)sc3c2c1,-,.,-,-,-,.
COc1ccccc1OCC(=O)c1[nH]c(C)c(C(C)=O)c1C,73.9,-,-,-,.,-
COc1ccc(OCCC(=O)OCC(=O)Nc2cccc(S(=O)(=O)N3CCOCC3)c2)cc1,-,-,.,.,-,-
CC(C)(C)c1ccc(OCCC(=O)Nc2cccc(S(=O)(=O)N3CCOCC3)c2)cc1,74.8,-,.,-,.,-
O=C(CNC(=O)c1cccs1)Nc1cccc(S(=O)(=O)N2CCOCC2)c1,61.0,-,-,-,.,-
Cc1cc(Nc2cc(C(F)(F)F)cc(C(F)(F)F)c2)cc(=O)n1-c1cc(C(F)(F)F)cc(C(F)(F)F)c1,-,.,.,.,-,.
Cc1cc(Nc2cccc(C(F)(F)F)c2)cc(=O)n1-c1cccc(C(F)(F)F)c1,67.5,.,.,.,-,.
O=C(CN1C(=O)NC2(CCCCC2)C1=O)N1CCN(S(=O)(=O)c2ccc(F)cc2)CC1,-,-,-,-,.,-
CCOC(=O)n1ccc(C(=O)Nc2ccccc2F)n1,-,-,-,.,-,-
CCn1c(C)nc2cc(C(=O)NN=Cc3ccc([N+](=O)[O-])cc3)ccc21,.,-,.,.,31.5,-
O=C(Nc1ccn(Cc2ccccc2F)n1)c1ccc(COc2ccc(Br)cc2)cc1,86.7,.,-,-,-,.
OCCNc1nc(N2CCCCC2)nc2ccccc12,-,-,-,66.6,-,-
c1coc(CNc2nc(N3CCCCC3)nc3ccccc23)c1,.,-,-,-,.,-
CCC(=O)NC(=S)Nc1cccc(Cl)c1N1CCCCC1,73.3,-,-,-,-,-
CCCC(=O)NC(=S)Nc1cccc(Cl)c1N1CCCCC1,-,-,-,-,.,-
C[C@H]1CN([C@@H](C)CO)C(=O)Cc2cc(NC(=O)Cn3cnnn3)ccc2O[C@H]1CN(C)S(=O)(=O)c1ccccc1,-,-,-,-,.,-
COc1ccccc1NC(=S)NCC1CCCCC1,-,-,181.6,-,-,-
CCOC(=O)C(=CNc1nc2ccc(C(=O)OCC)cc2s1)C(=O)OCC,-,-,-,-,-,-
CSc1nnc(CCCCCNC(=O)OC(C)(C)C)o1,-,-,-,-,-,-
SMILES,HIV Env fusion,Cneo AK release,miR122 inh,PGC1a acetyl inh,FN deposition inh,Yeast UUG start
CCCCSc1nnc(CCCCCNC(=O)OC(C)(C)C)o1,55.2,-,-,-,-,-
O=C(CCc1nc(-c2ccccc2F)no1)Nc1cccnc1,58.9,-,.,.,.,-
NC(=NCCc1ccccc1)NS(=O)(=O)c1ccc(F)cc1,-,-,-,-,-,-
c1ccc(Sc2ccccn2)cc1,-,-,-,75.8,-,-
c1ccc(SSc2ccccn2)nc1,.,-,-,-,.,-
COc1ccc([C@@H]2[C@@H]3C(=O)N(C(C)(C)C)C(=O)[C@@H]3[C@]3(CC(C)C)C(=O)N(c4cccc(F)c4)C(=O)N23)cc1,99.0,-,.,.,-,-
CC[C@@]12C(=O)N(c3cccc(F)c3)C(=O)N1[C@H](c1ccc(Br)cc1)[C@@H]1C(=O)N(C(C)(C)C)C(=O)[C@@H]12,97.9,-,-,-,-,-
Cc1ccc(C(=O)CC(C(=O)O)n2ccc(C)n2)cc1 (stereo not given),-,-,-,-,-,-
Cc1cccc(CN2CCSCCS2(=O)=O)c1,61.1,.,.,.,-,.
Clc1ccc2c(c1)C(C1=NCCN1)c1ccccc1CS2 (stereo not given),113.5,.,.,.,-,.
O=C(c1ccccc1)N(C(=O)c1ccccc1)N1CCCC1,.,-,.,-,-,-
COc1ccc(CNS(=O)(=O)c2ccc(OC)cc2)cc1,.,-,-,-,.,-
O=S(=O)(NCc1ccccc1)c1ccc(Cl)c(S(=O)(=O)NCc2ccccc2)c1,-,-,105.8,-,.,-
COc1ccc(S(=O)(=O)NCc2ccccc2)cc1Br,-,-,192.3,-,-,-
COc1ccc(S(=O)(=O)NCc2ccccc2)cc1,-,-,112.8,.,.,-
O=S(=O)(NCc1ccccc1)c1ccc2ccccc2c1,-,-,.,-,-,-
COc1ccccc1Oc1ccc(S(=O)(=O)NCc2ccccn2)cc1,75.6,.,.,.,.,.
COc1ccc(NC2=CC(=O)CC(C)(C)C2)cc1,-,-,-,-,-,-
CCN(CC)CCSc1nnc2c3cc(F)ccc3n(Cc3ccccc3)c2n1,-,.,.,.,-,.
CCN1C(=O)N[C@@H](c2ccccc2)[C@H](C(=O)OC)[C@H]1C,-,-,.,.,-,-
Cc1nc2ccccc2n1CCOc1ccc([N+](=O)[O-])cc1,-,.,.,.,-,.
COc1ccc(N2CCN(C(=O)CSc3nnc(-c4cc5ccccc5cc4O)n3C)CC2)cc1,77.2,-,-,-,-,-
COc1ccc(-n2cnnc2SCC(=O)N2CCN(c3ccccc3)CC2)cc1,.,-,-,-,.,-
C=CCn1c(COc2cccc(C)c2C)nnc1SCC(=O)N1CCN(c2ccccc2)CC1,63.7,.,.,.,-,.
CCn1c(SCC(=O)N2CCN(c3ccccc3)CC2)nnc1-c1c[nH]c2ccccc12,65.1,-,-,-,-,-
SMILES,HIV Env fusion,Cneo AK release,miR122 inh,PGC1a acetyl inh,FN deposition inh,Yeast UUG start
CC1(C)Cc2ccccc2-c2nnc(SCC(=O)N3CCN(c4ccccc4)CC3)n21,83.2,-,-,-,-,-
CSCCC(NS(=O)(=O)c1ccc(Cl)cc1)C(=O)OCC(=O)N1CCCc2ccccc21 (stereo not given),-,.,.,.,-,.
C[C@@H]1CC[C@H]2C(=O)N3[C@@H](CC[C@@H](C)[C@@H]3c3ccc(Br)cc3)C(=O)N2[C@H]1c1ccc(Br)cc1,77.3,-,.,.,-,-
C[C@@H]1CN([C@@H](C)CO)C(=O)c2cc(/C=C/c3ccccc3)cnc2O[C@@H]1CN(C)S(C)(=O)=O,-,82.9,-,-,-,-
C[C@H](CO)N1C[C@H](C)[C@H](CN(C)S(=O)(=O)c2ccc(C#N)cc2)Oc2ncc(/C=C/c3ccccc3)cc2C1=O,74.3[16.7 µM],-,-,-,.,-
C[C@H](CO)N1C[C@H](C)[C@H](CN(C)S(=O)(=O)c2cn(C)cn2)Oc2ncc(/C=C/c3ccccc3)cc2C1=O,-,96.6!,-,-,-,-
